Reference: PubChem BioAssay AID504414 (Broad Institute, 2011)
The list shows a part of the results, in another mix than the full data. Some tests of the compounds listed are not included; inactive here does not mean inactive elsewhere. The source made the active and inactive calls.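 Rule for the calls: active = highest replicate inhibition of at least 40%; inactive = the rest.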

Molecular target: Golgi-associated PDZ and coiled-coil motif-containing protein (Homo sapiens) (UniProt Q9HD26)
Assay: disruption of CAL PDZ-reporter peptide interaction – biochemical, fluorescence polarization, Cer-tagged CAL PDZ, HTS, primary screen (AID 504414);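 note: plate controls were DMSO neutral control wells for no effect and unlabeled competitor peptide control wells for full effect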
Details: purified CAL PDZ, TMR-peptide fluorescence polarization, 1 h; at 20 µM; active compounds read high

Structure (SMILES)	inhibition
O=C(NCC1(N2CCCCC2)CCCCC1)c1cccc(Br)c1	inactive: -2.32%
Cc1cc(C(=O)NCC2(N3CCCCC3)CCCCC2)ccc1[N+](=O)[O-]	inactive: -0.885%
CCN1CCCC(OC(=O)C2(O)c3ccccc3C=Cc3ccccc32)C1 (stereo not given)	inactive: 0.349%
COc1ccc(C(=O)NCC2(N(C)C)CCCCC2)cc1	inactive: 0.867%
O=C(NCC1(N2CCCCC2)CCCCC1)c1cc(F)c(F)cc1Cl	inactive: -1.56%
C=CCN1CCN(CCOC(=O)C(O)(c2ccccc2)c2ccccc2)CC1	inactive: -1.03%
CN(C)C1CCCC1OC(=O)C(O)(c1ccccc1)c1ccccc1 (stereo not given)	inactive: -3.09%
CN(C)c1ccc(C(=O)NCC2(N(C)C)CCCCC2)cc1	inactive: -0.472%
Cc1ccccc1C(=O)NCC1(N2CCCCC2)CCCCC1	inactive: -2.66%
Cc1ccc(C(=O)NCC2(N3CCCCC3)CCCCC2)cc1	inactive: 0.267%
CC(C)N1C(=O)CC2(CCN(CCOC(=O)C(O)(c3ccccc3)c3ccccc3)CC2)C1=O	inactive: -0.0605%
COc1cc(SC)ccc1C(=O)NCC1(N(C)C)CCCCC1	inactive: -1.11%
CCN(CC)CC(C)C(C)OC(=O)C(O)(c1ccccc1)c1ccccc1 (stereo not given)	inactive: -1.38%
CN1[C@@H]2CC[C@H]1CC(OC(=O)C(O)(c1ccccc1)c1ccccc1)C2 (stereo not given in full)	inactive: -0.282%
O=C(NCC1(N2CCCCC2)CCCCC1)c1cc([N+](=O)[O-])ccc1Cl	inactive: -2.32%
CN(C)c1cccc(C(=O)NCC2(N(C)C)CCCCC2)c1	inactive: 1.26%
O=C(OCCN1CCCC1)C(O)(c1ccccc1)c1ccccc1	inactive: -0.558%
CC(C)Oc1ccc(C(=O)NCC2(N(C)C)CCCCC2)cc1	inactive: -1.04%
COc1ccc(Br)c(C(=O)NCC2(N3CCCCC3)CCCCC2)c1	inactive: -1.76%
O=C(OC1CN2CCC1CC2)C(CO)(c1ccccc1)c1ccccc1 (stereo not given)	inactive: 0.0245%
O=C(NCC1(N2CCCCC2)CCCCC1)c1cccc(Cl)c1	inactive: 0.24%
COc1ccc(Cl)cc1C(=O)NCC1(N(C)C)CCCCC1	inactive: -0.0776%
COc1cccc(C(=O)NCC2(N3CCCCC3)CCCCC2)c1	inactive: 12.5%
COc1cc(C(=O)NCC2(N(C)C)CCCCC2)c([N+](=O)[O-])cc1OC	inactive: -1.89%
CN(C)C1(CNC(=O)c2ccc(Br)cc2)CCCCC1	inactive: -1.12%
